Protein sequences, listed by entry. Tags and fused reporters are not part of them.
UniProt Q5BJF2, whole entry: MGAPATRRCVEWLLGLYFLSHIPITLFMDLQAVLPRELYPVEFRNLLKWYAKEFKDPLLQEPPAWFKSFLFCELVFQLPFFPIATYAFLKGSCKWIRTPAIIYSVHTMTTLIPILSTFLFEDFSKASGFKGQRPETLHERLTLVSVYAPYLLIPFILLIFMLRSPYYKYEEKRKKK

In paper PMC4229119, “Alzheimer's Therapeutics Targeting Amyloid Beta 1–42 Oligomers II: Sigma-2/PGRMC1 Receptors Mediate Abeta 42 Oligomer Binding and Synaptotoxicity” (PLoS ONE, 2014):

Tests used:
[1] = tested on: synapses; conditions: cited from earlier work
[2] = target: sigma-2/PGRMC1 receptor (Homo sapiens, UniProt Q5BJF2); assay: Sigma-2 radioligand binding ([3H]DTG competition, Jurkat cell membranes; Cerep 0148); conditions: read-out: Ki, displacement of selective radioligand [3H]-DTG from sigma-2/PGRMC1 receptor; homogenates of a human T cell line; mean ± S.E.M.
[3] = tested on: mouse models of Alzheimer's disease; conditions: cited from earlier work
[4] = tested on: mixed cultures of hippocampal plus cortical neurons and glia; conditions: cited from earlier work
[5] = tested on: endogenous Abeta oligomers in human AD patient brain sections; assay: Human tissue ex-vivo Abeta competition (plaque halo of AD brain sections); conditions: unfixed AD neocortex sections, 1 hour; CT01344 5 or 15 µM (Spearman's Rho = −0.492, p = 0.038); antibody 1 ng/ml (p<0.05)
Procedure: Brains from human subjects with a diagnosis of AD (CERAD score “definite” by postmortem neuropathological exam) were obtained through the Massachusetts Alzheimer's Disease Research Center and Massachusetts General Hospital (MGH) Neuropathology Department, and experiments were approved by the Massachusetts General Hospital and Harvard Medical School Institutional Review Board. […] Fluorescent images of the sections were analyzed in ImageJ [42] analysis software using a custom macro which first identifies dense core plaques labeled by Thio-S and then measures the average Abeta labeling intensity in a 2 micron wide ring surrounding each plaque. A total of 346 to 464 plaques from six donor specimens were analyzed for each treatment group. The median intensities of Abeta labeling in the two micron area surrounding each plaques were calculated for each section (6 sections per treatment group) and subjected to multivariate correlation analysis (Spearman's test) to compare treatment effects across all donor brain samples.

Structure (SMILES)	restoration of synapses [1]	Ki [2] [nM]	restoration of cognitive function [3]	reversal of Abeta oligomer-mediated trafficking deficits [4]	Abeta immunofluorescence in the 2 micron wide halo around plaques [5]
C[C@H](CCc1ccc(Cl)cc1)NCc1ccc(C(F)(F)F)cc1	restore synapses to normal	50	restore cognitive function	reverse Abeta oligomer-mediated trafficking deficits	
C[C@H](CCc1ccc(Cl)c(Cl)c1)NCc1ccc(C(F)(F)F)cc1	restore synapses to normal		restore cognitive function	reverse Abeta oligomer-mediated trafficking deficits	dose-dependently reduced Abeta immunofluorescence
